Chains of the proteins cited; added tags and fusions are not shown.
UniProt P21589, whole entry: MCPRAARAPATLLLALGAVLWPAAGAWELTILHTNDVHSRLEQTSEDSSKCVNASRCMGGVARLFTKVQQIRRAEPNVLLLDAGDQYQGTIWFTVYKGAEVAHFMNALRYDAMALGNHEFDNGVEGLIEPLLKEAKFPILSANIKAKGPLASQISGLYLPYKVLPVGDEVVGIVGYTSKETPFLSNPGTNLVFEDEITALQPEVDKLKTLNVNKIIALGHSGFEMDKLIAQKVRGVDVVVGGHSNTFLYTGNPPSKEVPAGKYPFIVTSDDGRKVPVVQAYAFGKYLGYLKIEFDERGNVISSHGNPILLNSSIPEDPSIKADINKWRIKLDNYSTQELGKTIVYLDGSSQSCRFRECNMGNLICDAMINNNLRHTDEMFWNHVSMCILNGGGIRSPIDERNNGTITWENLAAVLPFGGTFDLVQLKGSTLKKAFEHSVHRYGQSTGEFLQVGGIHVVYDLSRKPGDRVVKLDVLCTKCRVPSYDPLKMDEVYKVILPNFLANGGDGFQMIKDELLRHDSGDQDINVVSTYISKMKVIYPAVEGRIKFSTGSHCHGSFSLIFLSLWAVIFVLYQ

In ChEMBL document CHEMBL4387703, “Lead optimization and biological evaluation of fragment-based cN-II inhibitors” (Eur J Med Chem, 2019):

Assays:
[1] = biological target: 5'-nucleotidase (Homo sapiens) (UniProt P21589); details: RL
[2] = biological target: 5'-nucleotidase (Homo sapiens) (UniProt P21589); details: RL; remark: listed apart in the source
[3] = biological target: 5'-nucleotidase (Homo sapiens) (UniProt P21589)
[4] = biological target: 5'-nucleotidase (Homo sapiens) (UniProt P21589); details: RL; remark: listed apart in the source
[5] = biological target: 5'-nucleotidase (Homo sapiens) (UniProt P21589); details: CCRF-CEM
[6] = biological target: 5'-nucleotidase (Homo sapiens) (UniProt P21589); remark: listed apart in the source
[7] = biological target: 5'-nucleotidase (Homo sapiens) (UniProt P21589); details: CCRF-CEM; remark: listed apart in the source
[8] = biological target: 5'-nucleotidase (Homo sapiens) (UniProt P21589); remark: listed apart in the source

Measured: CI

CCOP(=O)(Cn1cnc2c(NC(=O)c3cccc(-c4ccccc4)c3)ncnc21)OCC
< 0.9: [1]

O=C(Nc1ncnc2ncn(COCc3ccccc3)c12)c1cccc(-c2ccccc2)c1
< 0.9: [1] | [2]

O=C(Nc1ncnc2ncn(Cc3ccccc3)c12)c1cccc(-c2ccccc2)c1
< 0.9: [3] | [4] | [1] | [2] | [5]

O=C(Nc1ncnc2c1ncn2Cc1ccccc1)c1cccc(-c2ccccc2)c1
< 0.9: [6] | [3] | [4] | [7] | [5] | [8]
